Earlier results on 1 compound are cited in patent publication US20200306255A1, “COMPOSITIONS AND METHODS FOR TREATING NIEMANN PICK C DISEASE” (AI Therapeutics, Inc., priority 2016, published 2020).

SMILES strings stand for the structures.

In this data set the test system is adipocytes. To be noted: read-out: inhibition of basal and insulin-activated 2-deoxyglucose uptake, IC50; cited from earlier work.

In general, IC50 refers to the concentration needed to halve the response being measured. For the compound `Nc1ccc(C(=O)Nc2cccc(-c3nc(N4CCOCC4)c4oc5ncccc5c4n3)c2)cn1` [YM-201636, 6-amino-N-(3-(4-morpholinopyrido[3′,2′:4,5]furo[3,2-d]pyrimidin-2-yl)phenyl)nicotinamide], the IC50 is 54 nM.
